Source: patent US5342604A, “Complexes possessing ortho ligating functionality” (The Dow Chemical Company, priority 1992, dated 1994)

Assay: Percent complex determination, samarium complexes (Sephadex C-25 cation exchange)
Assay type: physicochemical
Details: Sm
Description: A disposable 10 ml plastic (Biorad) column was filled with 1 to 2 ml of water-swelled Sephadex™ C-25 cation exchange resin. The water was pressure eluted to the top of the resin. Fifteen μl of the complex (or more if counts were low) were added to the top of the resin. This was followed by 2 ml of 4:1 (V:V) isotonic saline:conc. ammonium hydroxide solution as an eluent which was allowed to drip into a counting tube. This was also pressure eluted to the top of the resin. An additional 2 ml of the eluent were added and the column pressure eluted to remove all liquid. The dried resin was then placed in a third counting tube and the three tubes counted on a NaI well counter using a Canberra multichannel analyzer linked to a computer. The percent complex was determined by dividing the number of counts in the two elutions by the total counts in the elutions plus the column, all times 100.
Samarium complexes were formed as described previously for yttrium complexes except that 0.0003M samarium was prepared by dissolution of Sm2 03 (348.7 g mole) in 0.1M hydrochloric acid. […] Percent complex determination was made in the same manner as for the yttrium complex.

## 2,6-BIS{[(2-{BIS(CARBOXYMETHYL)]AMINO}ETHYL) (CARBOXYMETHYL)]AMINOMETHYL}-4-(AMINO)PHENOL, SAMARIUM COMPLEX [Example XX]
After anion exchange chromatography
  percent complex: 95%
pH 7, before purification
  percent complex: 68%
